In patent EP2975056A1 (NOVO NORDISK A/S, dated 2016) one finds Kd, koff and kon data, which are given here for 10 molecules.

The chains behind the UniProt entries cited, without tags or fusion partners. A line that says so, or that is headed by a name, gives the form on record, which may keep a tag or linker. Residues count along the entry.
UniProt Q9NP99, 21-205 limits assumed, form in doubt: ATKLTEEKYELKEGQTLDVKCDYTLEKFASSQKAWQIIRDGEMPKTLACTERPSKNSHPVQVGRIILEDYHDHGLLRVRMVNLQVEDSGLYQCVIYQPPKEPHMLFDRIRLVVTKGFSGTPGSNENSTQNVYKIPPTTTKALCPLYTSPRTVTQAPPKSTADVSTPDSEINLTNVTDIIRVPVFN

Sequences and labels used below:
B1: mAb 0317 (mAb 0170 variant, LC E27Q, E97S) (antibody, human IgG4 S228P, kappa, V domains shown)
VH: EVQLVESGGGLVQPGGSLKLSCAASGFTFSTYAMHWVRQASGKGLEWVGRIRTKSSNYATYYAASVKGRFTISRDDSKNTAYLQMNSLKTEDTAVYYCTRDMGIRRQFAYWGQGTLVTVSS
VL: DIVLTQSPDSLAVSLGERATINCRASQSVDTFDYSFLHWYQQKPGQPPKLLIYRASNLESGVPDRFSGSGSGTDFTLTISSLQAEDVAVYYCQQSNSDPYTFGQGTKLEIKR
B2: mAb 0324 (mAb 0170 variant, HC A59Y) (antibody, human IgG4 S228P, kappa, V domains shown)
VH: EVQLVESGGGLVQPGGSLKLSCAASGFTFSTYAMHWVRQASGKGLEWVGRIRTKSSNYYTYYAASVKGRFTISRDDSKNTAYLQMNSLKTEDTAVYYCTRDMGIRRQFAYWGQGTLVTVSS
VL: DIVLTQSPDSLAVSLGERATINCRASESVDTFDYSFLHWYQQKPGQPPKLLIYRASNLESGVPDRFSGSGSGTDFTLTISSLQAEDVAVYYCQQSNEDPYTFGQGTKLEIKR
B3: mAb 0320 (mAb 0170 variant, LC E97Q) (antibody, human IgG4 S228P, kappa, V domains shown)
VH: EVQLVESGGGLVQPGGSLKLSCAASGFTFSTYAMHWVRQASGKGLEWVGRIRTKSSNYATYYAASVKGRFTISRDDSKNTAYLQMNSLKTEDTAVYYCTRDMGIRRQFAYWGQGTLVTVSS
VL: DIVLTQSPDSLAVSLGERATINCRASESVDTFDYSFLHWYQQKPGQPPKLLIYRASNLESGVPDRFSGSGSGTDFTLTISSLQAEDVAVYYCQQSNQDPYTFGQGTKLEIKR
B4: mAb 0325 (mAb 0170 variant, HC N57S) (antibody, human IgG4 S228P, kappa, V domains shown)
VH: EVQLVESGGGLVQPGGSLKLSCAASGFTFSTYAMHWVRQASGKGLEWVGRIRTKSSSYATYYAASVKGRFTISRDDSKNTAYLQMNSLKTEDTAVYYCTRDMGIRRQFAYWGQGTLVTVSS
VL: DIVLTQSPDSLAVSLGERATINCRASESVDTFDYSFLHWYQQKPGQPPKLLIYRASNLESGVPDRFSGSGSGTDFTLTISSLQAEDVAVYYCQQSNEDPYTFGQGTKLEIKR
B5: mAb 0319 (mAb 0170 variant, LC E97S) (antibody, human IgG4 S228P, kappa, V domains shown)
VH: EVQLVESGGGLVQPGGSLKLSCAASGFTFSTYAMHWVRQASGKGLEWVGRIRTKSSNYATYYAASVKGRFTISRDDSKNTAYLQMNSLKTEDTAVYYCTRDMGIRRQFAYWGQGTLVTVSS
VL: DIVLTQSPDSLAVSLGERATINCRASESVDTFDYSFLHWYQQKPGQPPKLLIYRASNLESGVPDRFSGSGSGTDFTLTISSLQAEDVAVYYCQQSNSDPYTFGQGTKLEIKR
B6: mAb 0322 (mAb 0170 variant, LC F32A) (antibody, human IgG4 S228P, kappa, V domains shown)
VH: EVQLVESGGGLVQPGGSLKLSCAASGFTFSTYAMHWVRQASGKGLEWVGRIRTKSSNYATYYAASVKGRFTISRDDSKNTAYLQMNSLKTEDTAVYYCTRDMGIRRQFAYWGQGTLVTVSS
VL: DIVLTQSPDSLAVSLGERATINCRASESVDTADYSFLHWYQQKPGQPPKLLIYRASNLESGVPDRFSGSGSGTDFTLTISSLQAEDVAVYYCQQSNEDPYTFGQGTKLEIKR
notes: also called ID; NO 9
B7: mAb 0318 (mAb 0170 variant, LC E27Q, E97Q) (antibody, human IgG4 S228P, kappa, V domains shown)
VH: EVQLVESGGGLVQPGGSLKLSCAASGFTFSTYAMHWVRQASGKGLEWVGRIRTKSSNYATYYAASVKGRFTISRDDSKNTAYLQMNSLKTEDTAVYYCTRDMGIRRQFAYWGQGTLVTVSS
VL: DIVLTQSPDSLAVSLGERATINCRASQSVDTFDYSFLHWYQQKPGQPPKLLIYRASNLESGVPDRFSGSGSGTDFTLTISSLQAEDVAVYYCQQSNQDPYTFGQGTKLEIKR
notes: also called ID; No. 5
B8: mAb 0323 (mAb 0170 variant, LC F32S) (antibody, human IgG4 S228P, kappa, V domains shown)
VH: EVQLVESGGGLVQPGGSLKLSCAASGFTFSTYAMHWVRQASGKGLEWVGRIRTKSSNYATYYAASVKGRFTISRDDSKNTAYLQMNSLKTEDTAVYYCTRDMGIRRQFAYWGQGTLVTVSS
VL: DIVLTQSPDSLAVSLGERATINCRASESVDTSDYSFLHWYQQKPGQPPKLLIYRASNLESGVPDRFSGSGSGTDFTLTISSLQAEDVAVYYCQQSNEDPYTFGQGTKLEIKR
B9: mAb 0321 (mAb 0170 variant, LC E27Q) (antibody, human IgG4 S228P, kappa, V domains shown)
VH: EVQLVESGGGLVQPGGSLKLSCAASGFTFSTYAMHWVRQASGKGLEWVGRIRTKSSNYATYYAASVKGRFTISRDDSKNTAYLQMNSLKTEDTAVYYCTRDMGIRRQFAYWGQGTLVTVSS
VL: DIVLTQSPDSLAVSLGERATINCRASQSVDTFDYSFLHWYQQKPGQPPKLLIYRASNLESGVPDRFSGSGSGTDFTLTISSLQAEDVAVYYCQQSNEDPYTFGQGTKLEIKR
B10: mAb 0326 (mAb 0170 variant, HC A59Y, N57S) (antibody, human IgG4 S228P, kappa, V domains shown)
VH: EVQLVESGGGLVQPGGSLKLSCAASGFTFSTYAMHWVRQASGKGLEWVGRIRTKSSSYYTYYAASVKGRFTISRDDSKNTAYLQMNSLKTEDTAVYYCTRDMGIRRQFAYWGQGTLVTVSS
VL: DIVLTQSPDSLAVSLGERATINCRASESVDTFDYSFLHWYQQKPGQPPKLLIYRASNLESGVPDRFSGSGSGTDFTLTISSLQAEDVAVYYCQQSNEDPYTFGQGTKLEIKR

In the assay the target is T1, human TREM-1-Fc (human, UniProt Q9NP99 21-205, limits assumed).
T1 construct: not shown: Fc part of the fusion
Description: binding kinetics, method not stated in the example.
With B1, the dissociation constant Kd (in general, the concentration at which binding is half-saturated) came to 0.2 nM; the off-rate constant (koff) (commonly the first-order rate constant of dissociation) worked out at 0.0006 s⁻¹; the association rate constant (kon) (in general, a measure of how fast the partners come together) came to 4e+06 M⁻¹ s⁻¹.

The molecule B2 had a Kd of 0.3 nM, an off-rate constant (koff) of 0.0008 s⁻¹ and a kon of 3e+06 M⁻¹ s⁻¹.

B3 registered an equilibrium dissociation constant (Kd) of 0.2 nM, a koff of 0.0007 s⁻¹ and an association rate constant (kon) of 4e+06 M⁻¹ s⁻¹.

As to B4, the Kd is 0.08 nM, the off-rate (koff) came out at 0.0003 s⁻¹ and the on-rate constant (kon) came to 4e+06 M⁻¹ s⁻¹.

In turn, B5 returned a Kd of 0.2 nM, a dissociation rate constant (koff) of 0.0006 s⁻¹ and an on-rate (kon) of 4e+06 M⁻¹ s⁻¹.

Take B6: the affinity, expressed as Kd, was 0.1 nM; the koff was found to be 0.0003 s⁻¹; the on-rate (kon) was found to be 3e+06 M⁻¹ s⁻¹.

With B7, the Kd amounted to 0.2 nM, the koff came out at 0.0008 s⁻¹ and the kon is 4e+06 M⁻¹ s⁻¹.

B8 displayed a dissociation constant Kd of 0.3 nM, a koff of 0.0006 s⁻¹ and an on-rate constant (kon) of 2e+06 M⁻¹ s⁻¹.

In the case of B9, the dissociation constant (Kd) came to 0.2 nM, the koff was determined as 0.0006 s⁻¹ and the kon is 3e+06 M⁻¹ s⁻¹.

B10: the Kd turned out to be 0.2 nM, the koff worked out at 0.0007 s⁻¹ and the kon stood at 3e+06 M⁻¹ s⁻¹.
